Reference: US9107814B2, “Micelle composition of polymer and passenger drug” (Wisconsin Alumni Research Foundation, priority 2005, dated 2015)

Assay: geldanamycin prodrug loading into and release from PEG-b-PCL micelles
Assay type: physicochemical
Settings: time 6 days; prodrug in micelles
Method: These modified Hsp90 inhibitors may show sustained release from the carrier. Drugs were loaded into 0.5 mM PEG-b-PCL (5000:10000 Da) micelles to achieve a 25% wt loading (or 1.9 mg/ml solution). […] Drug diffusion was calculated as described in Forrest and Kwon, 2005 (Journal of Controlled Release).
PEG-PCL micelles are prepared by the drop-wise addition of geldanamycin prodrug and PEG-PCL dissolved in a miscible solvent, acetone, to vigorously stirred water, followed by removal of the solvent by N2 purge, and 0.2-μm filtration. Alternatively, the solution may be centrifuged to remove unincorporated and aggregated drug. The final solvent to water ratio is between about 0.1 and about 5, preferably between about 0.5 and about 4, and more preferably about 2. The micelle solution should be delivered at a rate of between about 2 s/drop and about 60 s/drop, preferably between about 5 s/drop and about 30 s/drop, and more preferably between about 10 s/drop and about 20 s/drop.

fraction released: 0.7811
SMILES: CCCCCCCCCCCCCCCC(=O)OCCNC1=C2CC(C)CC(OC)C(O)C(C)C=C(C)C(OC(N)=O)C(OC)C=CC=C(C)C(=O)NC(=CC1=O)C2=O (stereo not shown) [17-aminoethyl-palmitate-17-demethoxygeldanamycin]
